## Binding of CDR-mutated scFvs to a peptide of the spike HR2 region

Reference: Li et al. 2023, doi:10.1038/s41467-023-39022-2. File: FLAb, binding data.

Target peptide (SARS-CoV-2 spike, HR2 region): PDVDLGDISGINAS

Each scFv is VH, a 15-residue (Gly4Ser)3 linker, VL, as in the parent Ab-14, and differs from it in the CDRs of the light chain only.
VH: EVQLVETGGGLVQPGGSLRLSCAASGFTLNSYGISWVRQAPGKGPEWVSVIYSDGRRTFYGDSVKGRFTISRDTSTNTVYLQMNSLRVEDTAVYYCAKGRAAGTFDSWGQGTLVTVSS
VL: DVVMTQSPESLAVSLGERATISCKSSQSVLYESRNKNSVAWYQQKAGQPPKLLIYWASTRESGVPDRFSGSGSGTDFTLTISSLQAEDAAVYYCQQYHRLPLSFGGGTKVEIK

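The starting antibody came from a phage panning campaign against this peptide. These sequences belong to a second round, designed from the earlier measurements on random variants of the parent. Their group label is 14L_En_Gibbs (En: ensemble of fine-tuned language models; Gibbs: Gibbs sampling). AlphaSeq pools MATa yeast showing the antibodies with MATalpha yeast showing the peptide. After mating in shaken culture at 30 °C for 16 h, diploids were selected and their barcode pairs sequenced. Read counts were normalised to the haploid input and turned into Kd by a linear fit to BCL2-family pairs of known affinity, for each replicate. The assay was run in six technical replicates.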

Variants are written as CDR1, CDR2 and CDR3 of the light chain (limits as in the source). Parent: KSSQSVLYESRNKNSVA, WASTRES, QQYHRLPLS. Scale: log10 of Kd in nM, estimated from mating counts; low values are strong binders. A pair that was not seen in that replicate is written "nd"; this usually means weak binding, but a binder can also be missed. Of ten entries with the parent sequence, four were seen in most replicates (averages 0.34 to 2.37), three in one and three in none, so single entries are noisy.

CDR-L1,CDR-L2,CDR-L3,"log10 Kd, replicates",control signals
VISMFELQGTGWAQNIA,QASHKVE,QQFSRLPLV,1.06 nd 0.57 0.69 0.63 0.53,0 of 18
TLQDWGTYGMENGNRIA,ERSKLEW,QQYGRLPLS,1.39 1.08 0.98 1.13 1.29 1.69,1 of 18 (2.27)
QVQYHPGESLRHTSSIA,DVNIKEM,QQYSRLPLS,0.74 0.57 0.76 0.34 0.67 0.94,3 of 18 (3.26)
RIQQQMAGFEKEAANIA,STAVRLW,QQYARLPFI,0.48 0.40 -0.33 0.39 0.28 0.27,0 of 18
SIRQVTDDYQATHDAIA,DASQIEP,QQYSWLPLS,nd nd nd nd nd nd,0 of 18
QVQAFNEHEKDQTQAMA,EASMRDA,QQYERLPLS,0.85 1.01 1.00 0.98 1.06 1.11,0 of 18
FITGNSDNLYQDESSVA,ETNQIRE,QQYALLPLS,nd 2.12 nd nd nd 1.01,0 of 18
TLMQAGEQEDSENKAIA,DAIIKGV,QQYNRLPLT,nd 1.95 2.07 nd 1.08 1.50,1 of 18 (0.98)

As a blank, each scFv also met three strains without target: over all light chain designs, 4% of these pairings were detected, typically at 2.64 and seldom below 1.59. The control count says in how many pairings with the empty strains this scFv gave a signal, with their mean in brackets. In the paper, a design with two or fewer of six values counts as a poor binder. A sequence measured in both rounds can read differently, since the two assays cover different ranges.